Tested on: gefitinib-resistant A431 cells
Experiment: Annexin V/PI cell apoptosis assay in A431 cells
Type: cell-based
Conditions: 48 hours, 5 μM gefitinib, 10 μM chloroquine, 10 nM rapamycin, FIG. 1
Experimental: Each experiment was performed in triplicate, and the results were expressed as mean±SD.

## COc1cc2ncnc(Nc3ccc(F)c(Cl)c3)c2cc1OCCCN1CCOCC1 [gefitinib]
  percentage of apoptotic cells: about 50%

Reference: patent US20150209364A1, “METHOD FOR TREATING EPIDERMOID CARCINOMA” (Johnpro Biotech Inc., priority 2011, published 2015)
